Test system: male ICR mice
Experiment: FOB, cannabinoid receptor antagonism of 3 mg/kg JWH-018 effects
Type: in vivo, mouse
Details: rimonabant/vehicle and SR144528/vehicle groups; all mice

Cc1c(C(=O)NN2CCCCC2)nn(-c2ccc(Cl)cc2Cl)c1-c1ccc(Cl)cc1 [rimonabant]
FOB selected measures, antagonist 3 mg/kg i.p. plus vehicle: Normal responses
